These results are taken from patent US20230302100A1.

The target in this assay is denosumab (XGEVA). The experiment in a line: cell-based or functional assay.

For the substance IdeS BX1001865 (enzyme), the Conc. of enzyme for 1st IgG heavy chain cleavage (IgG to scIgG), SDS-PAGE came to 14 ng/mL and the Conc. of enzyme for 2nd IgG2 (XGEVA) heavy chain cleavage (scIgG to F(ab')2), SDS-PAGE was determined as 1100 ng/mL.
